Laboratory results reported in US20230165812A1, “NOCICEPTOR NEURONS CONTROL CANCER IMMUNOSURVEILLANCE” (priority 2020, published 2023).

System: cytotoxic CD8 T cells
Assay type: cell-based, mice
Procedure: 6-8 weeks-old male and female mice were euthanized, spleen harvested in ice-cold PBS (5% FBS), and mechanically dissociated. The cells were strained (70 μm), RBC lysed (Life Technologies, #A1049201; 2 min), and counted using a hemocytometer. Naïve CD8^+ T cells were magnet sorted (Stem cell, #19853A) and cultured (DMEM+FBS 10%, Pen/Strep +non-essential amino acid (Corning, #25-025-C1)+vitamin+β-mercaptoethanol (Gibco, #21985-023)+L-Glutamine (VWR, #02-0131)+sodium pyruvate (Corning, #25-000-C1)). Cell purity was confirmed after magnet sorting by labeling cells against CD62L and the numbers of CD8^+CD62^hi immunophenotyped by flow cytometry. To generate cytotoxic T lymphocytes, 1×10^6 naïve CD8^+ T cells were seeded and stimulated for 48 h under Tc1 inflammatory condition (2 μg/ml plate bounded αCD3/αCD28 (Bioxcell, #BE00011, #BE00151)+10 ng/ml rIL-12 (Biolegend, #577008)+10 μg/ml of anti-IL-4 (Bioxcell, #BE0045).
CD8 T cells were isolated and stimulated for 48 h in 96 wells plate. In the presence of peptidase inhibitor, the cells were treated with either of CGRP (0.1 uM), VIP (1 uM) and SST (0.1 uM), or a combination of these. Expression of PD-1, Lag-3 and Tim-3 as well as INFγ, TNFα and IL-2 were immunophenotyped by flow cytometry.

## CGRP
CGRP
  cytotoxic CD8+ T-cells expression of Lag3+: increases
  cytotoxic CD8+ T-cells expression of PD1+: increases
  cytotoxic CD8+ T-cells expression of Tim3+: increases
CGRP 0.1 uM, VIP 1 uM, FIG. 38G
  proportion of PD1+Lag3+ cytotoxic CD8 T cells: increased
CGRP, direct stimulation
  proportion of TNFα+ cytotoxic CD8+ T-cells: decreased
Individual neuropeptides, peptidase inhibitor present, FIG. 38G
  proportion of PD1+Lag3+Tim3+ CD8 T cells: enhanced
Individual neuropeptides, FIG. 38H
  proportion of INFγ+ CD8 T cells: enhanced
neuropeptides, FIG. 44H
  proportion of PD1+ CD8 T cells: enhanced
neuropeptides, FIG. 44I
  proportion of Lag3+ CD8 T cells: enhanced
neuropeptides, FIG. 44J
  proportion of Tim3+ CD8 T cells: enhanced
neuropeptides, FIG. 44K
  IL2+ CD8 T cells: enhanced
